In assay [1] the target is T1, Isocitrate dehydrogenase [NADP] cytoplasmic (Homo sapiens, UniProt O75874, R132C). The assay can be described thus: Inhibition of human Myc-DDK-tagged IDH1 R132C mutant assessed as reduction in NADPH consumption pre-incubated for 15 mins followed by alpha-ketoglutarate substrate and NADPH addition after 45 mins by diaphorase and resazurin dye based assay.
Assay [2] deals with T1, Isocitrate dehydrogenase [NADP] cytoplasmic. The assay can be described thus: Inhibition of IDH1 R132C mutant in human HCT116 cells assessed as reduction in 2-HG levels after 24 hrs by RapidFire high-throughput mass spectrometry assay. The class given is cell-based.

Protein sequences, listed by entry. Tags and fused reporters are not part of them. Residues count along the entry.
UniProt O75874, 2-414 R132C limits assumed: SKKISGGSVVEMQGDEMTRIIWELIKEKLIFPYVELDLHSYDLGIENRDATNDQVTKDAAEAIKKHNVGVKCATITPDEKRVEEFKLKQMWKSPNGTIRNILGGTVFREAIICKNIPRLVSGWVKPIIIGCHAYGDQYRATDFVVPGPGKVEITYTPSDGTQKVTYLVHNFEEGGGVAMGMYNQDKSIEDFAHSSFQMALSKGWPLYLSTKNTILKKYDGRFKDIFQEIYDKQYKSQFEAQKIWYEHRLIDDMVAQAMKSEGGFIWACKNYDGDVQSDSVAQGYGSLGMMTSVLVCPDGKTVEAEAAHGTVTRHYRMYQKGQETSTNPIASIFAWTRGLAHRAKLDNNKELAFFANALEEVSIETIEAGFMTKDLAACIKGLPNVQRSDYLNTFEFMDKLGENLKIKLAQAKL

From ChEMBL document CHEMBL4359816, “Discovery and Optimization of Quinolinone Derivatives as Potent, Selective, and Orally Bioavailable Mutant Isocitrate Dehydrogenase 1 (mIDH1) Inhibitors” (J Med Chem, 2019) come the findings set out here.

As for `COc1cc(N[C@@H](C)c2cc3cc(Cl)ccc3[nH]c2=O)ncc1C#N`, the IC50 (as a rule, the concentration that gives 50% inhibition) in assay [1] worked out at 0.178 µM; in assay [2], 0.411 µM.
